Source: patent US7973145B2, “Sulfonated sugar compounds, pharmaceutical compositions which contain the same, and methods of treating tumors with the same” (priority 2007, dated 2011)

Test: Solubility measurement in injectable water
Format: physicochemical
Details: 1 g in 5 ml of injectable water, strongly shaken at 25° C.

dissolution in injectable water: immediately dissolved
Substance: 3-O-(6-sulfo-α-D-quinovopyranosyl)-1-O-stearoyl-propane-1,3-diol calcium salt [αSQAP C18:0 calcium salt]
